Experimental findings from patent US20230158165A1, “TREGITOPE CONSTRUCTS USEFUL IN THE PREVENTION AND TREATMENT OF TYPE 1 DIABETES” (EPIVAX, INC., priority 2020, published 2023) are described below.

In the assay the test system is female C57BL/6 mice immunized with ovalbumin (OVA). As to the kind of experiment: Response to OVA immunization after HSA-Tregitope conjugate or free-maleimide-Tregitope treatment. Format: in vivo. As to conditions: splenocytes stimulated with OVA, Day 17.

Take “HSA: recombinant human serum albumin carrier, HSA-only control group”: the “IFNγ production (IFNγ/IL2 and IFNγ/IL17 fluorospot assays)” value is given as “inhibited less”.
